The results in this text go back to PubChem BioAssay AID602 (SRMLSC, 2007).

The entries are a selection whose mix differs from that of the whole data set. Some results for these compounds are left out of this collection, so the calls shown say nothing about other tests. Activity calls are given as the source filed them.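 The calls were made as follows: active = viability drop by adding the cancer drug above about 55%, with treated viability meeting a 40% cutoff (limit read from the data); inactive = the rest, inconclusive results apart.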

The nature of this experiment: MRP1 drug-resistance reversers in H69AR cells – cell-based, doxorubicin co-treatment, primary screen (AID 602).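 Also: viability without doxorubicin minus viability with 2 µM doxorubicin for each compound; larger differential means the compound sensitizes cells more to doxorubicin.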 The settings on record: H69AR cells + 2 uM doxorubicin, CellTiter-Glo, 72 h; at 10 µM; active compounds read high. Background: ATP-based viability assays read luminescence as a measure of living cells.
Consider `O=C(OC1CN2CCC1CC2)C(CO)(c1ccccc1)c1ccccc1` (configuration not stated), for which the differential viability (reversal) was inactive: -0.77%.

On to `CN(C)c1cccc(C(=O)NCC2(N(C)C)CCCCC2)c1`, for which the differential viability (reversal) was inactive: -27.2%.
